Several values for one entry are separate records, joined by “and”; a condition that tells them apart may be missing. Equal values may be shown once. This is a selection; strong and weak results do not stand in their true shares. Results filed as inconclusive are left out. Activity calls are given as the source filed them. Calls follow the shape of the dose curve; as a rule, active = well fitted curve in the direction sought with a large enough effect; inconclusive = small, poorly fitted or top-dose-only effect, or effect the other way, or another doubt; inactive = no such curve, though single readings can be large or run the other way.
Molecular target: Runt-related transcription factor 1 (Homo sapiens) + Core-binding factor subunit beta (Homo sapiens) (UniProt Q01196+Q13951)
Test: qHTS Assay for Compounds Blocking the Interaction Between CBF-beta and RUNX1 for the Treatment of Acute Myeloid Leukemia; also: % of control where 0% means no effect
Details: AlphaScreen CBFb-His/RUNX1-biotin binding, biochemical
[1] = at 59.8 µM (top of the series) unless noted

Sequences of proteins named here, by UniProt entry; tags and fusion partners are left off.
UniProt Q01196, whole entry, looked up: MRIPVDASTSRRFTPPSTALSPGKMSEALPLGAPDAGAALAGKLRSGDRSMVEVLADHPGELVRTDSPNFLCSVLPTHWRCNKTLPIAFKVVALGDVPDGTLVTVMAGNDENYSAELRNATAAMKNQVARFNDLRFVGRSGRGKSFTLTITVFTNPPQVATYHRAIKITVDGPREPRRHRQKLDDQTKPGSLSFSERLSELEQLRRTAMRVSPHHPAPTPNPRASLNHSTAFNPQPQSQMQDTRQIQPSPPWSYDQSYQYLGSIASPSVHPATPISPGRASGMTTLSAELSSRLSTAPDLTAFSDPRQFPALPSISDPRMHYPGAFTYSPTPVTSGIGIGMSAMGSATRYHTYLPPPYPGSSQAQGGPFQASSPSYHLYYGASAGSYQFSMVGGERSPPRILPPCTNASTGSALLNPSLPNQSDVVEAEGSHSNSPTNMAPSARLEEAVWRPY
UniProt Q13951, whole entry, looked up: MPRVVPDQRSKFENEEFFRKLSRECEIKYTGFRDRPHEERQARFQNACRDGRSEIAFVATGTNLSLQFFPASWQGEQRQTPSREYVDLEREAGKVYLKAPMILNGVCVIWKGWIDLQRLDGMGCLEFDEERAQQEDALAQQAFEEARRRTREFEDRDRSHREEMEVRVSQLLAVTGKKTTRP

Row | SMILES | activity, negative = inhibition [1] | activity, negative = inhibition (at 21.7 µM (top of the series))
1 | C(Cc1nn[nH]n1)Cc1nn[nH]n1 | inactive: 0.295% | –
2 | O=C(OC1CN2CCC1CC2)c1cccc(Cl)c1 (stereo not drawn) | inactive: 2.66% | –
3 | O=[N+]([O-])c1ncn(CCn2cnc([N+](=O)[O-])n2)n1 | inactive: 11.3% | –
4 | CC(=O)NC(SC(=S)N(C)C)C(Cl)(Cl)Cl (stereo not drawn) | inactive: -0.121% | –
5 | O=[As](O)(c1ccccc1)c1ccc(O)cc1 | inactive: -12.2% | –
6 | C[C@H]1OP(=O)(Oc2ccccc2)[C@H](O)[C@H](O)[C@H]1N=[N+]=[N-] (stereo partly drawn) | inactive: 11.1% | –
7 | O=P(Nc1nc2ccccc2s1)(c1ccccc1)c1ccccc1 | inactive: 2.3% | –
8 | CN(C(=O)Cc1ccccc1)[C@H]1CC[C@@]2(CCCO2)C[C@@H]1N1CCCC1 | inactive: 7.27% | –
9 | Cc1cc([N+](=O)[O-])cc([N+](=O)[O-])c1O | inactive: -3.79% [at 21.7 µM] | –
10 | O=P(Nc1ccccn1)(c1ccc(Br)cc1)c1ccc(Br)cc1 | inactive: 3.17% | –
11 | CCC(C)(OOC(C)(C)C)OOC(C)(C)C | inactive: -4.38% | –
12 | c1nnnn1CCn1cnnn1 | inactive: 1.07% | –
13 | O=P(Nc1nccs1)(c1ccccc1)c1ccccc1 | inactive: 2.49% | –
14 | CC(C)C(=O)NC(Sc1ccccc1)C(Cl)(Cl)Cl (stereo not drawn) | inactive: -0.973% | –
15 | CC(=O)Nc1ccc(Oc2c([N+](=O)[O-])cc([N+](=O)[O-])cc2[N+](=O)[O-])cc1 | inactive: -2.26% | –
16 | CC(=O)Nc1ccc([As](=O)(O)O)c(O)c1 | inactive: 17.5% | –
17 | C[C@@H]1C=CCP(=O)(Oc2ccccc2)O1 (stereo partly drawn) | inactive: 6.36% | –
18 | C[C@H]1OP(=O)(Oc2ccccc2)C[C@@H]2O[C@@H]21 (stereo partly drawn) | inactive: 6.37% | –
19 | CC(C)(C)C(=O)NC(Sc1ccccc1)C(Cl)(Cl)Cl (stereo not drawn) | inactive: 6.45% | –
20 | CCOc1ccc(C2=NCC(CBr)S2)cc1 (stereo not drawn) | inactive: -1.64% | –
21 | O=P1(Nc2nc3ccc(Cl)cc3s2)COc2ccccc2O1 (stereo not drawn) | inactive: -3.5% | –
22 | CN(C)C(=O)Oc1noc2ccccc12 | inactive: 7.21% | –
23 | O=c1c2cc([N+](=O)[O-])ccc2[nH]c2c([N+](=O)[O-])cc([N+](=O)[O-])cc12 | inactive: -18.8% | –

Row | SMILES | activity, negative = inhibition [1] | activity, negative = inhibition (at 21.7 µM (top of the series))
24 | Cc1ccccc1OP(=O)(Nc1ccccn1)Oc1ccccc1C | inactive: -1.8% | –
25 | Cc1ccc(OP(=O)(Nc2ccccn2)Oc2ccc(C)cc2)cc1 | inactive: 0.314% | –
26 | CC(=O)NC(SC(=S)N(CC(C)C)CC(C)C)C(Cl)(Cl)Cl (stereo not drawn) | inactive: 0.902% | –
27 | COC(=O)c1cc2c(s1)N=C(c1ccccc1)N(C)P2(=O)N1CCOCC1 (stereo not drawn) | inactive: 0.436% | –
28 | CCC(=O)N1C2C3N(C(=O)CC)C1C1N(C(=O)CC)C(C(N1C(=O)CC)N3C(=O)CC)N2C(=O)CC | inactive: 2.88% | –
29 | O=C(NC1CCS(=O)(=O)C1)NP(=S)(Oc1ccccc1)Oc1ccccc1 (stereo not drawn) | inactive: 7.8% | –
30 | CCNC(=S)/N=C(\N)N[N+](=O)[O-] | inactive: -1.39% | –
31 | CCOC(=O)NC(Sc1ccccc1)C(Cl)(Cl)Cl (stereo not drawn) | inactive: 8.55% | –
32 | Cc1ccc(NP(=O)(Oc2cccc(C)c2)Oc2cccc(C)c2)nc1 | inactive: 8.07% | –
33 | c1ccc(-c2nn[nH]n2)c(-c2nn[nH]n2)c1 | inactive: 5.01% | –
34 | CCN(N=Nc1nonc1N)c1nonc1N | inactive: 0.499% | –
35 | Nc1cccc2ccc([As](=O)(O)O)cc12 | inactive: -8.3% | –
36 | CN(C(=O)Cc1ccc(Cl)c(Cl)c1)[C@H]1CCCC[C@@H]1N1CCCC1 | – | inactive: 0.0174% and inactive: 4.01% and inactive: 5.71%
37 | Cc1ccc(NP(=O)(Oc2ccccc2F)Oc2ccccc2F)nc1 | inactive: 1.84% | –
38 | CCOP(=O)(Nc1ccccc1)OCC | inactive: 0.0698% and inactive: 1.8% | –
39 | Cc1cc(SC(NC(=O)c2ccc(F)cc2)C(Cl)(Cl)Cl)ncn1 (stereo not drawn) | inactive: 1.92% | –
40 | O=C(O)c1ccccc1[As](=O)(O)O | inactive: 9.22% | –
41 | CC(=O)Nc1ccc([As](=O)(O)O)cc1 | inactive: 8.8% | –
42 | O=P(Nc1nc2ccc(Cl)cc2s1)(c1ccccc1)c1ccccc1 | inactive: 0.846% | –
43 | CC(C)CC(=O)NC(Sc1ccc(Cl)cc1)C(Cl)(Cl)Cl (stereo not drawn) | inactive: 6.3% | –
44 | Nc1cc(N)c2nonc2c1[N+](=O)[O-] | inactive: 8.21% | –
45 | Cc1c2non([O-])c-2c(C)[n+](=O)[n+]1[O-] | inactive: -2.76% | –
46 | O=C(NC(Sc1ccncn1)C(Cl)(Cl)Cl)c1ccccc1 (stereo not drawn) | inactive: 4.85% | –

Row | SMILES | activity, negative = inhibition [1] | activity, negative = inhibition (at 21.7 µM (top of the series))
47 | Oc1ccccc1CNc1ccccn1 | inactive: 0.45% | –
48 | Cc1ccc(OP(=O)(Nc2nccs2)Oc2ccc(C)cc2)cc1 | inactive: 3.04% | –
49 | COc1ccccc1OP(=O)(Nc1ccc(C)cn1)Oc1ccccc1OC | inactive: 1.47% | –
50 | Clc1ccc(Cl)c(NC2=NCC(CBr)S2)c1 (stereo not drawn) | inactive: -1.11% | –
51 | CN1CCCC(OC(=O)C(c2ccccc2)c2ccccc2)C1 (stereo not drawn) | inactive: 20.7% | –
52 | NC(=O)c1cc([N+](=O)[O-])cc([N+](=O)[O-])c1N | inactive: 12.1% | –
53 | Cc1ccc(N/C(=N/P(=O)(N2CCOCC2)N2CCOCC2)N2CCOCC2)cc1 | inactive: 8.74% | –
54 | CN(C)C(=O)OCCc1n(C)cc[n+]1C | inactive: -6.24% | –
55 | CC(C)=N/N=C(\N)N[N+](=O)[O-] | inactive: 1.67% | –
56 | CC(=O)C1=CCCC2CCC1N2 (stereo not drawn) | inactive: -8.34% and inactive: 16.5% | –
57 | CC1CCN(C(=O)Oc2c(Cl)cc(Cl)c3cccnc23)CC1 | inactive: 5.32% | –
58 | Nc1ccc([As](=O)(O)c2ccc(N)cc2)cc1 | inactive: -0.287% | –
59 | CCN(/C(=N/P(=O)(N1CCOCC1)N1CCOCC1)N1CCOCC1)c1ccc(OC)cc1 | inactive: 2.11% | –
60 | CC(=O)N1C2C3N(C(C)=O)C1C1N(C(C)=O)C(C(N1C(C)=O)N3C(C)=O)N2C(C)=O | inactive: -1.5% | –
61 | O=[N+]([O-])c1cccc2n[nH]nc12 | inactive: 6.54% | –
62 | Cc1ccc(NP(=O)(Oc2ccccc2)Oc2ccccc2)nc1 | inactive: -3.69% | –
63 | COc1ccc(C2=NCC(CBr)S2)cc1 (stereo not drawn) | inactive: 5.03% | –
64 | O=[N+]([O-])c1cccc(NC2=NCC(CBr)S2)c1 (stereo not drawn) | inactive: 3.75% | –
65 | O=C(O)CNc1ccc([As](=O)(O)O)cc1 | inactive: 0.195% | –
66 | CC(C)(C)C(=O)NC(Sc1ccncn1)C(Cl)(Cl)Cl (stereo not drawn) | inactive: 0.593% | –
67 | O=[N+]([O-])c1ncn(CCn2ncnc2[N+](=O)[O-])n1 | inactive: 1.8% | –
68 | O=C(Nc1cc([As](=O)(O)O)ccc1O)c1ccccc1 | inactive: 5.78% | –

Source: PubChem BioAssay AID1477 (National Center for Advancing Translational Sciences (NCATS), 2009)
